From patent US12410399B2, “Compositions and methods for treating retinal diseases” (The Regents of the University of California, priority 2011, dated 2025) come the findings set out here.

The subject of this experiment is hRPCs. In words: hRPC culture medium and supplement comparison (yield, proliferation). It counts as cell-based, human. Here is the method:
Various serum- and xeno-free cell culture media were tested to determine the optimum condition for propagating RPCs, including DMEM/FF12 (standard, Advanced and KnockOut; Invitrogen), Neurobasal (Invitrogen), Ultraculture (Lonza), and ReNcell (Chemicon). Cell culture media used in the culture of RPCs were sometimes supplemented with N2 supplement (Invitrogen), B27 (Invitrogen or other brand), Stempro (Invitrogen), vitamin C, albumin, recombinant human epidermal growth factor (EGF), basic fibroblast growth factor (bFGF), GlutaMAX I, L-Glutamine, and/or Penicillin-Streptomycin (Invitrogen) for first 2 weeks. “SM” as provided herein refers to standard growth medium based on DMEM/FF12. “UL” is referred to herein as growth medium using Ultraculture as the base medium. Serum-free media was used in the absence of antibiotics or with antibiotics for first two weeks, followed by antibiotic-free media for about 6 weeks. No antifungal agents were used. […] For base medium, standard DMEM/F12, a media supplemented with N2 Supplement, growth factors, glutamine or GLUTAMAX™ (GlutaMax™), was compared with “Advanced DMEM/FF12”, supplemented in the same way.
The effects of cell culture supplementation were also explored. To that end, the N2 supplement was also compared with the B27 xeno-free supplement. […] The effects of additional vitamin C were also tested. […]

For the substance “albumin: xeno-free human recombinant albumin added to medium at 1.0 mg/ml”, the enhancement of proliferation entry by setting is: (1.0 mg/ml added to standard DMEM/F12-based medium) “up to 27%”; (additional albumin added to Advanced DMEM/F12-based medium) “no detectable improvement”.
